{
  "source": "PubChem BioAssay AID2071",
  "about": "(Sanford-Burnham Center for Chemical Genomics, 2009)",
  "note": "Several values for one entry are separate records, joined by “and”; a condition that tells them apart may be missing. Equal entries are not always repeated. This is a selection; strong and weak results do not stand in their true shares. Activity calls are given as the source filed them. No stated cut-off is given here; in the data, active means inhibition mostly above about 24% (no sharp cut-off); inactive means mostly below about 32%.",
  "data": [
    {"assay": "NALP1 inflammasome inhibitors in reconstituted yeast, colorimetric, S. cerevisiae, triplicate retest (AID 2071)", "conditions": "S. cerevisiae NALP1/ASC/caspase-1 growth, X-gal OD620, 72 h; at 10 µM; active compounds read high", "values": [
      {"smiles": "O=[N+]([O-])c1ncn(CCn2ncnc2[N+](=O)[O-])n1", "inhibition": "inactive: -14.8%"},
      {"smiles": "O=C(O)CNc1ccc([As](=O)(O)O)cc1", "inhibition": "inactive: 5.5%"},
      {"smiles": "O=[N+]([O-])c1cccc(NC2=NCC(CBr)S2)c1", "note": "(stereo unspecified)", "inhibition": "inactive: 3.8%"},
      {"smiles": "O=C(Nc1cc([As](=O)(O)O)ccc1O)c1ccccc1", "inhibition": "inactive: 10.4%"},
      {"smiles": "CCN(/C(=N/P(=O)(N1CCOCC1)N1CCOCC1)N1CCOCC1)c1ccc(OC)cc1", "inhibition": "inactive: -10.2%"},
      {"smiles": "Nc1ccc([As](=O)(O)c2ccc(N)cc2)cc1", "inhibition": "inactive: 1.5%"},
      {"smiles": "CC1CCN(C(=O)Oc2c(Cl)cc(Cl)c3cccnc23)CC1", "inhibition": "inactive: 1.9%"},
      {"smiles": "CN(C)C(=O)OCCc1n(C)cc[n+]1C", "inhibition": "inactive: 18.8%"},
      {"smiles": "CC(C)=N/N=C(\\N)N[N+](=O)[O-]", "inhibition": "inactive: 6.6%"},
      {"smiles": "COc1ccc(C2=NCC(CBr)S2)cc1", "note": "(stereo unspecified)", "inhibition": "inactive: -9.7%"},
      {"smiles": "CCc1nc2c(n1)c1c(non1O)c1c2no[n+]1[O-]", "inhibition": "inactive: -14.7%"},
      {"smiles": "O=[N+]([O-])c1cc([N+](=O)[O-])c(CCNc2ccccc2)c([N+](=O)[O-])c1", "inhibition": "inactive: -6.2%"},
      {"smiles": "Cc1ccc(NP(=O)(Oc2ccccc2)Oc2ccccc2)nc1", "inhibition": "inactive: 12.3%"},
      {"smiles": "O=[N+]([O-])c1cccc2n[nH]nc12", "inhibition": "inactive: -0.1%"},
      {"smiles": "CC(=O)N1C2C3N(C(C)=O)C1C1N(C(C)=O)C(C(N1C(C)=O)N3C(C)=O)N2C(C)=O", "inhibition": "inactive: 4.5%"},
      {"smiles": "O=C(NC(Sc1ccncn1)C(Cl)(Cl)Cl)c1ccccc1", "note": "(stereo unspecified)", "inhibition": "inactive: 4.8%"},
      {"smiles": "Cc1c2non([O-])c-2c(C)[n+](=O)[n+]1[O-]", "inhibition": "inactive: 16.1%"},
      {"smiles": "Oc1ccccc1CNc1ccccn1", "inhibition": "inactive: -19.6%"},
      {"smiles": "CC(C)CC(=O)NC(Sc1ccc(Cl)cc1)C(Cl)(Cl)Cl", "note": "(stereo unspecified)", "inhibition": "inactive: 2.1%"},
      {"smiles": "Cc1ccc(N/C(=N/P(=O)(N2CCOCC2)N2CCOCC2)N2CCOCC2)cc1", "inhibition": "inactive: -5.9%"},
      {"smiles": "NC(=O)c1cc([N+](=O)[O-])cc([N+](=O)[O-])c1N", "inhibition": "inactive: 1.2%"},
      {"smiles": "CN1CCCC(OC(=O)C(c2ccccc2)c2ccccc2)C1", "note": "(stereo unspecified)", "inhibition": "inactive: 27.4%"},
      {"smiles": "Clc1ccc(Cl)c(NC2=NCC(CBr)S2)c1", "note": "(stereo unspecified)", "inhibition": "inactive: 10%"},
      {"smiles": "Cc1ccc(OP(=O)(Nc2nccs2)Oc2ccc(C)cc2)cc1", "inhibition": "inactive: -7.9%"},
      {"smiles": "COc1ccccc1OP(=O)(Nc1ccc(C)cn1)Oc1ccccc1OC", "inhibition": "inactive: -15.6%"},
      {"smiles": "O=[N+]([O-])c1cc([N+](=O)[O-])c(CCN2CCOCC2)c([N+](=O)[O-])c1", "inhibition": "inactive: 7.4%"},
      {"smiles": "Nc1cccc2ccc([As](=O)(O)O)cc12", "inhibition": "inactive: 9.5%"},
      {"smiles": "O=P(Nc1nc2ccc(Cl)cc2s1)(c1ccccc1)c1ccccc1", "inhibition": "inactive: -12.5%"},
      {"smiles": "CC(=O)Nc1ccc([As](=O)(O)O)cc1", "inhibition": "inactive: 19%"},
      {"smiles": "O=C(O)c1ccccc1[As](=O)(O)O", "inhibition": "inactive: 16.4%"},
      {"smiles": "Cc1cc(SC(NC(=O)c2ccc(F)cc2)C(Cl)(Cl)Cl)ncn1", "note": "(stereo unspecified)", "inhibition": "inactive: 14.1%"},
      {"smiles": "CCOP(=O)(Nc1ccccc1)OCC", "inhibition": "inactive: 3.1% and inactive: 3.7%"},
      {"smiles": "CCC(=O)N1C2C3N(C(=O)CC)C1C1N(C(=O)CC)C(C(N1C(=O)CC)N3C(=O)CC)N2C(=O)CC", "inhibition": "inactive: -0.5%"},
      {"smiles": "O=C(OC1CN2CCC1CC2)c1ccccc1", "note": "(stereo unspecified)", "inhibition": "inactive: 31.2%"},
      {"smiles": "Cc1ccc(OP(=O)(Nc2ccccn2)Oc2ccc(C)cc2)cc1", "inhibition": "inactive: -9.5%"},
      {"smiles": "CC(=O)NC(SC(=S)N(CC(C)C)CC(C)C)C(Cl)(Cl)Cl", "note": "(stereo unspecified)", "inhibition": "inactive: 28.6%"},
      {"smiles": "COC(=O)c1cc2c(s1)N=C(c1ccccc1)N(C)P2(=O)N1CCOCC1", "note": "(stereo unspecified)", "inhibition": "inactive: 8.8%"},
      {"smiles": "O=c1c2cc([N+](=O)[O-])ccc2[nH]c2c([N+](=O)[O-])cc([N+](=O)[O-])cc12", "inhibition": "inactive: 6.4%"},
      {"smiles": "Cc1ccccc1OP(=O)(Nc1ccccn1)Oc1ccccc1C", "inhibition": "inactive: 25.7%"},
      {"smiles": "CCOC(=O)NC(Sc1ccccc1)C(Cl)(Cl)Cl", "note": "(stereo unspecified)", "inhibition": "inactive: -3.3%"},
      {"smiles": "Cc1ccc(NP(=O)(Oc2cccc(C)c2)Oc2cccc(C)c2)nc1", "inhibition": "inactive: 22.3%"},
      {"smiles": "c1ccc(-c2nn[nH]n2)c(-c2nn[nH]n2)c1", "inhibition": "inactive: -7.9%"},
      {"smiles": "CCNC(=S)/N=C(\\N)N[N+](=O)[O-]", "inhibition": "inactive: 3.4%"},
      {"smiles": "O=C(NC1CCS(=O)(=O)C1)NP(=S)(Oc1ccccc1)Oc1ccccc1", "note": "(stereo unspecified)", "inhibition": "inactive: 4.2%"},
      {"smiles": "C[C@H]1OP(=O)(Oc2ccccc2)C[C@@H]2O[C@@H]21", "note": "(stereo partly specified)", "inhibition": "inactive: 6.2%"},
      {"smiles": "C[C@@H]1C=CCP(=O)(Oc2ccccc2)O1", "note": "(stereo partly specified)", "inhibition": "inactive: 3.7%"},
      {"smiles": "CC(=O)c1ccc(N2CC2c2ccncc2)cc1", "note": "(stereo unspecified)", "inhibition": "inactive: 3.1%"},
      {"smiles": "CC(=O)Nc1ccc(Oc2c([N+](=O)[O-])cc([N+](=O)[O-])cc2[N+](=O)[O-])cc1", "inhibition": "inactive: -7.7%"},
      {"smiles": "CC(=O)Nc1ccc([As](=O)(O)O)c(O)c1", "inhibition": "inactive: 9.3%"},
      {"smiles": "CCOc1ccc(C2=NCC(CBr)S2)cc1", "note": "(stereo unspecified)", "inhibition": "inactive: 11.5%"},
      {"smiles": "O=P1(Nc2nc3ccc(Cl)cc3s2)COc2ccccc2O1", "note": "(stereo unspecified)", "inhibition": "inactive: 10.1%"}
    ]}
  ]
}
